Two compounds from ChEMBL document CHEMBL1201862, “PubChem BioAssay data set” (2004) can be followed below.

Amino acid sequences for entries named in this document (tags omitted).
UniProt P84022, whole entry, looked up: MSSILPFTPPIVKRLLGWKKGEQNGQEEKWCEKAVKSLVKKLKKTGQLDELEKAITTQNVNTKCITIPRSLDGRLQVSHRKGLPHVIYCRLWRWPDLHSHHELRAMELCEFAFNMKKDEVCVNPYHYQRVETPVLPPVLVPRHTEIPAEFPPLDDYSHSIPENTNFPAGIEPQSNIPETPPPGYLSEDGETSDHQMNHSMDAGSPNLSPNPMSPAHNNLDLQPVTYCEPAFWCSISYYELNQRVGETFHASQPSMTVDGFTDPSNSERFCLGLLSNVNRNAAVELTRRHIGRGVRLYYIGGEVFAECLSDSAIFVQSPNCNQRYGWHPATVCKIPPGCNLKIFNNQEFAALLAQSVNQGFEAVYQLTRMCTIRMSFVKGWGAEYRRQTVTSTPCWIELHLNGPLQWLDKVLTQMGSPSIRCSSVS

Molecules are shown by their SMILES. The other results are listed elsewhere or left out. Only a part of the results of these assays is listed, not drawn at random. Active and inactive are the calls of the source. The rule behind the calls is not given here.

The target of the test is Mothers against decapentaplegic homolog 3 (Homo sapiens) (UniProt P84022). The test can be described thus: qHTS for Inhibitors of TGF-b. [Related pubchem assays (depositor defined):AID588856, AID588860]. The class given is functional.
Take `CC[n+]1c(/C=C/N(C)c2ccccc2)oc2ccccc21`: the Potency entry was “inactive”. With `O=C(O)[C@@H](O)c1ccccc1` the entry was “inactive”.
